Tested on: HepG2 cells
Experiment: Cytotoxicity in HepG2 cells via CCK-8 assay
Type: cell-based
Experimental: HepG2 cells were maintained in Dulbecco’s Modified Eagle Medium (DMEM) supplemented with 10% fetal bovine serum and 1% penicillin–streptomycin under controlled conditions at 37 °C in a humidified atmosphere containing 5% CO2 for 24 h. To induce insulin resistance, cells were treated with insulin at concentrations of 0, 10^−4, 10^−5, 10^−6, 10^−7, 10^−8, and 10^−9 μmol/L for varying exposure periods (12, 24, 36, or 48 h), followed by a post-treatment incubation phase of equal length under standard culture conditions, according to the protocol described by. Cell viability was assessed using the Cell Counting Kit 8 (CCK-8) assay. Glucose consumption was measured via a glucose detection kit. […] The IR-HepG2 cellular model was established as described in Section 3.6. The experimental design included the following groups: a normal (untreated) control group, an insulin resistance (IR)-induced model group, a positive control group treated with metformin, and peptide intervention groups treated with peptide solution. Cell viability was evaluated in all groups to determine appropriate peptide concentrations and incubation times based on the criteria of non-cytotoxicity and maximal glucose consumption.

insulin
HepG2 cell viability (10^−4 mol/L insulin, CCK-8): 38.45%
cytotoxicity (in words) (insulin 10^−5 to 10^−9 mol/L, HepG2, CCK-8): did not induce cytotoxicity
